We go through 25 compounds from patent US20260382731A1, “BCL-2/BCL-XL PROTEIN DEGRADER AND USE THEREOF” (published 2026).

Broadly, the IC50 is the concentration at which inhibition is half-maximal.

The experiment relates to MOLT-4 cells. Description: Cell viability assay, MOLT-4 (CellTiter-Glo, 72 h). To be noted: read-out: MOLT4 Cell viability IC50. How it is done:
Human T-ALL cell MOLT-4 or SCLC NCI-H146 was cultured using standard cell culture conditions in RPMI-1640 supplemented with 10% FBS in humidified incubator at 37 °C, 5% CO2. To assess the effect of BCL-XL PROTAC degraders on cell viability, exponentially growing cells were seeded at a density of 10,000 cells/well in 96-well plates. After cell seeding, serially-diluted compound or DMSO was added to the cells (in concentration ranging from 0 to 10 uM, 3* dilution series), and plates were incubated for 72 hours. Cell viability was measured using a CellTiter-Glo Luminescent Cell Viability Assay kit (Promega) according to the manufacturer's protocol. The luminescence signal of treated cells was normalized to DMSO control. The dose response curves and IC50 values were generated using Prism.
For the compound `CCn1c(C)c(S(C)(=O)=O)c(-c2cc(F)cc(N3CCN(c4ccc(NS(=O)(=O)c5ccc(N[C@H](CCN(C)CCN(C)C(=O)CCCCCC(=O)N[C@H](C(=O)N6C[C@H](O)C[C@H]6C(=O)N[C@@H](C)c6ccc(-c7scnc7C)cc6)C(C)(C)C)CSc6ccccc6)c(S(=O)(=O)C(F)(F)F)c5)cc4)CC3)c2)c1-c1ccc(F)cc1`, the IC50 was found to be 23 nM.
Turning to `CCn1c(C)c(S(=O)(=O)NCCN(C)C)c(-c2cc(F)cc(N3CCN(c4ccc(NS(=O)(=O)c5ccc(N[C@H](CCN6CCN(C(=O)CCCCCC(=O)N[C@H](C(=O)N7C[C@H](O)C[C@H]7C(=O)N[C@@H](C)c7ccc(-c8scnc8C)cc7)C(C)(C)C)CC6)CSc6ccccc6)c(S(=O)(=O)C(F)(F)F)c5)cc4)CC3)c2)c1-c1ccc(F)cc1`, the IC50 was determined as 11 nM.
`CCn1c(C)c(S(C)(=O)=O)c(-c2cc(F)cc(N3CCN(c4ccc(NS(=O)(=O)c5ccc(N[C@H](CCN6CCN(C(=O)CCCCCC(=O)N[C@H](C(=O)N7C[C@H](O)C[C@H]7C(=O)NC7(c8ccc(-c9scnc9C)cc8)CC7)C(C)(C)C)CC6)CSc6ccccc6)c(S(=O)(=O)C(F)(F)F)c5)cc4)CC3)c2)c1-c1ccc(F)cc1`: the IC50 came out at 37 nM.
`CCn1c(C)c(S(C)(=O)=O)c(-c2cc(F)cc(N3CCN(c4ccc(NS(=O)(=O)c5ccc(N[C@H](CCN6CCN(C(=O)CCCCCC(=O)N[C@H](C(=O)N7C[C@H](O)C[C@H]7C(=O)NC7(c8ccc(-c9scnc9C)cc8)CC7)C(C)(C)C)CC6)CSc6ccccc6)c(S(=O)(=O)C(F)(F)F)c5)cc4)CC3)c2)c1-c1ccc(Cl)cc1`: the IC50 was 44 nM.
Take `CCn1c(C)c(C(=O)N2CC[C@@H](O)C2)c(-c2cc(F)cc(N3CCN(c4ccc(NS(=O)(=O)c5ccc(N[C@H](CCN6CCN(C(=O)CCCCCC(=O)N[C@H](C(=O)N7C[C@H](O)C[C@H]7C(=O)N[C@@H](C)c7ccc(-c8scnc8C)cc7)C(C)(C)C)CC6)CSc6ccccc6)c(S(=O)(=O)C(F)(F)F)c5)cc4)CC3)c2)c1-c1ccc(F)cc1`: the IC50 was 14 nM.
On to `CCn1c(C)c(C(=O)N2CC[C@H](O)C2)c(-c2cc(F)cc(N3CCN(c4ccc(NS(=O)(=O)c5ccc(N[C@H](CCN6CCN(C(=O)CCCCCC(=O)N[C@H](C(=O)N7C[C@H](O)C[C@H]7C(=O)N[C@@H](C)c7ccc(-c8scnc8C)cc7)C(C)(C)C)CC6)CSc6ccccc6)c(S(=O)(=O)C(F)(F)F)c5)cc4)CC3)c2)c1-c1ccc(F)cc1`, for which the IC50 came out at 11 nM.
For `CCn1c(C)c(S(C)(=O)=NC)c(-c2cc(F)cc(N3CCN(c4ccc(NS(=O)(=O)c5ccc(N[C@H](CCN6CCN(C(=O)CCCCCC(=O)N[C@H](C(=O)N7C[C@H](O)C[C@H]7C(=O)N[C@@H](C)c7ccc(-c8scnc8C)cc7)C(C)(C)C)CC6)CSc6ccccc6)c(S(=O)(=O)C(F)(F)F)c5)cc4)CC3)c2)c1-c1ccc(F)cc1` (stereo partly shown) the value was 95 nM; for `CCn1c(C)c(C(=O)N2CC3COCC3C2)c(-c2cc(F)cc(N3CCN(c4ccc(NS(=O)(=O)c5ccc(N[C@H](CCN6CCN(C(=O)CCCCCC(=O)N[C@H](C(=O)N7C[C@H](O)C[C@H]7C(=O)N[C@@H](C)c7ccc(-c8scnc8C)cc7)C(C)(C)C)CC6)CSc6ccccc6)c(S(=O)(=O)C(F)(F)F)c5)cc4)CC3)c2)c1-c1ccc(F)cc1` (stereo partly shown), 140 nM; for `CCn1c(C)c(S(C)(=O)=O)c(-c2cc(F)cc(N3CCN(C4CCC(NS(=O)(=O)c5ccc(N[C@H](CCN6CCCN(C(=O)CCCCCC(=O)N[C@H](C(=O)N7C[C@H](O)C[C@H]7C(=O)N[C@@H](C)c7ccc(-c8scnc8C)cc7)C(C)(C)C)CC6)CSc6ccccc6)c(S(=O)(=O)C(F)(F)F)c5)CC4)CC3)c2)c1-c1ccc(F)cc1` (stereo partly shown), 10 nM.
Consider `CCn1c(C)c(S(C)(=O)=O)c(-c2cc(F)cc(N3CCN(c4ccc(NS(=O)(=O)c5ccc(N[C@H](CCN6CCC7(CC6)CN(C(=O)CCCCC(=O)N[C@H](C(=O)N6C[C@H](O)C[C@H]6C(=O)N[C@@H](C)c6ccc(-c8scnc8C)cc6)C(C)(C)C)C7)CSc6ccccc6)c(S(=O)(=O)C(F)(F)F)c5)cc4)CC3)c2)c1-c1ccc(F)cc1`, for which the IC50 was 160 nM.
For the compound `CCn1c(C)c(S(C)(=O)=O)c(-c2cc(F)cc(N3CCN(c4ccc(NS(=O)(=O)c5ccc(N[C@H](CCN6CCN(C(=O)COCCOCCC(=O)N[C@H](C(=O)N7C[C@H](O)C[C@H]7C(=O)N[C@@H](C)c7ccc(-c8scnc8C)cc7)C(C)(C)C)CC6)CSc6ccccc6)c(S(=O)(=O)C(F)(F)F)c5)cc4)CC3)c2)c1-c1ccc(F)cc1`, the 50% inhibitory concentration (IC50) worked out at 78 nM.
On to `Cc1ncsc1-c1ccc([C@H](C)NC(=O)[C@@H]2C[C@@H](O)CN2C(=O)[C@@H](NC(=O)CCN2CCC3(CC2)CCN(CC[C@H](CSc2ccccc2)Nc2ccc(S(=O)(=O)Nc4ccc(N5CCN(c6cc(F)cc(-c7c(S(C)(=O)=O)c(C)n(C(C)C)c7-c7ccc(F)cc7)c6)CC5)cc4)cc2S(=O)(=O)C(F)(F)F)CC3)C(C)(C)C)cc1`, for which the IC50 came out at 48 nM.
Turning to `CCn1c(C)c(C(=O)N2CC[C@](C)(O)C2)c(-c2cc(F)cc(N3CCN(c4ccc(NS(=O)(=O)c5ccc(N[C@H](CCN6CCN(C(=O)CCCCCC(=O)N[C@H](C(=O)N7C[C@H](O)C[C@H]7C(=O)N[C@@H](C)c7ccc(-c8scnc8C)cc7)C(C)(C)C)CC6)CSc6ccccc6)c(S(=O)(=O)C(F)(F)F)c5)cc4)CC3)c2)c1-c1ccc(F)cc1`, the concentration for half-maximal inhibition (IC50) stood at 130 nM.
The figure for `CCn1c(C)c(S(C)(=O)=O)c(-c2cc(F)cc(N3CCN(c4ccc(NS(=O)(=O)c5ccc(N[C@H](CCN6CCN(C(=O)CCCCC(=O)N[C@H](C(=O)N7C[C@H](O)C[C@H]7C(=O)N[C@@H](C)c7ccc(-c8scnc8C)cc7)C(C)(C)C)CC6)CSc6ccccc6)c(S(=O)(=O)C(F)(F)F)c5)cc4)CC3)c2)c1-c1ccc(F)cc1` is 58 nM; for `CCn1c(C)c(S(C)(=O)=O)c(-c2cc(F)cc(N3CCN(c4ccc(NS(=O)(=O)c5ccc(N[C@H](CCN6CCN(C(=O)C7CC8(C7)CN(CC(=O)N[C@H](C(=O)N7C[C@H](O)C[C@H]7C(=O)N[C@@H](C)c7ccc(-c9scnc9C)cc7)C(C)(C)C)C8)CC6)CSc6ccccc6)c(S(=O)(=O)C(F)(F)F)c5)cc4)CC3)c2)c1-c1ccc(F)cc1` it is 74 nM; for `CCn1c(C)c(S(C)(=O)=O)c(-c2cc(F)cc(N3CCN(c4ccc(NS(=O)(=O)c5ccc(N[C@H](CCN6CCN(CCCCCC(=O)N[C@H](C(=O)N7C[C@H](O)C[C@H]7C(=O)N[C@@H](C)c7ccc(-c8scnc8C)cc7)C(C)(C)C)CC6)CSc6ccccc6)c(S(=O)(=O)C(F)(F)F)c5)cc4)CC3)c2)c1-c1ccc(Cl)cc1` it is 6 nM.
As to `CCn1c(C)c(S(C)(=O)=O)c(-c2cc(F)cc(N3CCN(c4ccc(NS(=O)(=O)c5ccc(N[C@H](CCN(C)CCCN(C)C(=O)CCCCCC(=O)N[C@H](C(=O)N6C[C@H](O)C[C@H]6C(=O)N[C@@H](C)c6ccc(-c7scnc7C)cc6)C(C)(C)C)CSc6ccccc6)c(S(=O)(=O)C(F)(F)F)c5)cc4)CC3)c2)c1-c1ccc(F)cc1`, the IC50 is 16 nM.
For `CCn1c(C)c(S(C)(=O)=O)c(-c2cc(F)cc(N3CCN(c4ccc(NS(=O)(=O)c5ccc(N[C@H](CCN6CCN(C(=O)CCOCCC(=O)N[C@H](C(=O)N7C[C@H](O)C[C@H]7C(=O)N[C@@H](C)c7ccc(-c8scnc8C)cc7)C(C)(C)C)CC6)CSc6ccccc6)c(S(=O)(=O)C(F)(F)F)c5)cc4)CC3)c2)c1-c1ccc(F)cc1`, the IC50 amounted to 310 nM.
The figure for `CCn1c(C)c(C(=O)N2C[C@H](OC)[C@@H](F)C2)c(-c2cc(F)cc(N3CCN(c4ccc(NS(=O)(=O)c5ccc(N[C@H](CCN6CCN(C(=O)CCCCCC(=O)N[C@H](C(=O)N7C[C@H](O)C[C@H]7C(=O)N[C@@H](C)c7ccc(-c8scnc8C)cc7)C(C)(C)C)CC6)CSc6ccccc6)c(S(=O)(=O)C(F)(F)F)c5)cc4)CC3)c2)c1-c1ccc(F)cc1` is 250 nM; for `CCn1c(C)c(S(=O)(=O)NCC2CCOCC2)c(-c2cc(F)cc(N3CCN(c4ccc(NS(=O)(=O)c5ccc(N[C@H](CCN6CCN(C(=O)CCCCCC(=O)N[C@H](C(=O)N7C[C@H](O)C[C@H]7C(=O)N[C@@H](C)c7ccc(-c8scnc8C)cc7)C(C)(C)C)CC6)CSc6ccccc6)c(S(=O)(=O)C(F)(F)F)c5)cc4)CC3)c2)c1-c1ccc(F)cc1` it is 36 nM.
Consider `Cc1ncsc1-c1ccc([C@H](C)NC(=O)[C@@H]2C[C@@H](O)CN2C(=O)[C@@H](NC(=O)CCCCCC(=O)N2CCN(CC[C@H](CSc3ccccc3)Nc3ccc(S(=O)(=O)Nc4ccc(N5CCN(c6cc(F)cc(-c7c(C(=O)NCCC8CCOCC8)c(C)n(C(C)C)c7-c7ccc(Cl)cc7)c6)CC5)cc4)cc3S(=O)(=O)C(F)(F)F)CC2)C(C)(C)C)cc1`, for which the IC50 was 82 nM.
Turning to `CCn1c(C)c(S(C)(=O)=O)c(-c2cc(F)cc(N3CCN(c4ccc(NS(=O)(=O)c5ccc(N[C@H](CCN6CCN(C(=O)CC7CC8(C7)CC(C(=O)N[C@H](C(=O)N7C[C@H](O)C[C@H]7C(=O)N[C@@H](C)c7ccc(-c9scnc9C)cc7)C(C)(C)C)C8)CC6)CSc6ccccc6)c(S(=O)(=O)C(F)(F)F)c5)cc4)CC3)c2)c1-c1ccc(F)cc1` (stereo partly shown), the IC50 came out at 75 nM.
Take `CCn1c(C)c(S(C)(=O)=O)c(-c2cc(F)cc(N3CCN(c4ccc(NS(=O)(=O)c5ccc(N[C@H](CCN6CCN(C(=O)CCCCCC(=O)N[C@H](C(=O)N7C[C@H](O)C[C@H]7C(=O)N[C@@H](C)c7ccc(-c8scnc8C)cc7)C(C)(C)C)CC6)CSc6ccccc6)c(S(=O)(=O)C(F)(F)F)c5)cn4)CC3)c2)c1-c1ccc(F)cc1`: the IC50 was 55 nM.
`CCn1c(C)c(S(=O)(=O)N2CC[C@H](O)C2)c(-c2cc(F)cc(N3CCN(c4ccc(NS(=O)(=O)c5ccc(N[C@H](CCN6CCN(C(=O)CCCCCC(=O)N[C@H](C(=O)N7C[C@H](O)C[C@H]7C(=O)N[C@@H](C)c7ccc(-c8scnc8C)cc7)C(C)(C)C)CC6)CSc6ccccc6)c(S(=O)(=O)C(F)(F)F)c5)cc4)CC3)c2)c1-c1ccc(F)cc1`: the IC50 came to 30 nM.
With `CCn1c(C)c(CS(C)(=O)=O)c(-c2cc(F)cc(N3CCN(c4ccc(NS(=O)(=O)c5ccc(N[C@H](CCN6CCN(C(=O)CCCCCC(=O)N[C@H](C(=O)N7C[C@H](O)C[C@H]7C(=O)N[C@@H](C)c7ccc(-c8scnc8C)cc7)C(C)(C)C)CC6)CSc6ccccc6)c(S(=O)(=O)C(F)(F)F)c5)cc4)CC3)c2)c1-c1ccc(F)cc1`, the IC50 was determined as 130 nM.
